From patent US20040053822A1 (published 2004)
Like-named read-outs stand apart in the source and are kept apart here. Each block holds one binder with its values, some of them ahead of it.

Assays:
[1] = target: HLA-A*2402 (human); assay: competition vs 125I probe peptide, purified HLA
[2] = target: HLA-A*6801 (human); assay: competition with 125I probe peptide, purified HLA
[3] = target: HLA-A*1101 (human); assay: competition with 125I probe peptide, purified HLA
[4] = target: HLA-A*3101 (human); assay: competition with 125I probe peptide, purified HLA
[5] = target: HLA-A*3301 (human); assay: competition with 125I probe peptide, purified HLA
[6] = target: HLA-A*0201 (human); assay: competition with 125I probe peptide, purified HLA
[7] = target: HLA-A*0202 (human); assay: competition with 125I probe peptide, purified HLA
[8] = target: HLA-A*6802 (human); assay: competition with 125I probe peptide, purified HLA
[9] = target: HLA-B*5101 (human); assay: competition vs 125I probe peptide, purified HLA
[10] = target: HLA-B*5401 (human); assay: competition vs 125I probe peptide, purified HLA
[11] = target: HLA-B*0702 (human); assay: competition vs 125I probe peptide, purified HLA
[12] = target: HLA-B*3501 (human); assay: competition vs 125I probe peptide, purified HLA
[13] = target: HLA-A*2402 (human); assay: competition vs 125I probe peptide, purified HLA; remark: listed apart in the source
[14] = target: HLA-B*5301 (human); assay: competition vs 125I probe peptide, purified HLA
[15] = target: HLA-A*0101 (human); assay: competition vs 125I probe peptide, purified HLA
[16] = target: HLA-DRB1*0101 (human); assay: inhibition of 125I probe peptide binding to purified HLA

IC50 [1]: 14.8 nM
Binder: SYSTTINYTF [MAGE2.70.Y2F10 SYSTTINYTF]

IC50 [1]: 375 nM
Binder: IYSKASSSF [MAGE3.150.Y2F9 IYSKASSSF]

IC50 [2]: 6.7 nM
IC50 [3]: 6.3 nM
IC50 [4]: 62 nM
IC50 [5]: 88 nM
Binder: SVFSTTINR [MAGE2.69.V2R9 SVFSTTINR]

IC50 [1]: 2.9 nM
Binder: VYPKTGLLIF [MAGE2.195.Y2F10 VYPKTGLLIF]

IC50 [6]: 24 nM
IC50 [7]: 6.7 nM
IC50 [8]: 286 nM
Binder: KMAELVHFL [MAGE3.112M2 KMAELVHFL]

IC50 [6]: 26 nM
Binder: KMAELVHFV [MAGE3.112M2V9 KMAELVHFV]

IC50 [9]: 8.2 nM
Binder: FPKAGLLI [MAGE3.196.F1I8 FPKAGLLI]

IC50 [10]: 37 nM
Binder: FPKTGLLI [MAGE2.196.F1I8 FPKTGLLI]

IC50 [11]: 63 nM
IC50 [9]: 5.7 nM
IC50 [10]: 2.9 nM
Binder: FPIGHLYIFI [MAGE3.170.F1I10 FPIGHLYIFI]

IC50 [1]: 3.4 nM
Binder: NYQYFFPVF [MAGE3.142.Y2F9 NYQYFFPVF]

IC50 [11]: 204 nM
IC50 [12]: 2670 nM
Binder: FPKAGLLIII [MAGE3.196.F1I10 FPKAGLLIII]

IC50 [10]: 15 nM
Binder: FPLWSQSI [MAGE3.77.F1 FPLWSQSI]

IC50 [13]: 34 nM
IC50 [1]: 34.3 nM
Binder: SYVKVLHHTF [MAGE2.282.F10 SYVKVLHHTF]

IC50 [13]: 218 nM
IC50 [1]: 218 nM
Binder: TYPDLESEF [MAGE3.97.Y2 TYPDLESEF]

IC50 [11]: 1.7 nM
IC50 [14]: 490 nM
IC50 [10]: 3.8 nM
Binder: FPHISYPPL [MAGE2.296.F1 FPHISYPPL]

IC50 [11]: 2.9 nM
Binder: FPHISYPPI [MAGE3.296.F1I9 FPHISYPPI]

IC50 [1]: 7.1 nM
Binder: KYVELVHFF [MAGE2.112.Y2F9 KYVELVHFF]

IC50 [10]: 42 nM
Binder: FPTTMNYPLW [MAGE3.71.F1 FPTTMNYPLW]

IC50 [11]: 6.3 nM
IC50 [10]: 7.1 nM
Binder: FPRALIETSYV [MAGE2.274.F1 FPRALIETSYV]

IC50 [11]: 4.2 nM
IC50 [9]: 204 nM
Binder: FPRALVETSYV [MAGE3.274.F1 FPRALVETSYV]

IC50 [9]: 117 nM
Binder: FPRALVETSYI [MAGE3.274.F1I11 FPRALVETSYI]

IC50 [15]: 490 nM
Binder: STFSTTINY [MAGE2.69.T2 STFSTTINY]

IC50 [15]: 2.6 nM
Binder: ASDLPTTMNY [MAGE3.68.D3 ASDLPTTMNY]

IC50 [15]: 208 nM
Binder: ATSLPTTMNY [MAGE3.68.T2 ATSLPTTMNY]

IC50 [15]: 2.7 nM
Binder: VTDLGLSY [MAGE2.179.D3 VTDLGLSY]

IC50 [15]: 455 nM
Binder: ATSFSTTINY [MAGE2.68.T2 ATSFSTTINY]

IC50 [11]: 86 nM
IC50 [9]: 1.2 nM
Binder: MPVAGLLII [MAGE3.196.V3 MPVAGLLII]

IC50 [16]: 1110 nM
Binder: AGLLIIVLAIIAREG [MAGE3.199]

IC50 [16]: 6250 nM
Binder: TGLLIIVLAIIAIEG [MAGE2.199]

IC50 [12]: 343 nM
IC50 [10]: 4.2 nM
Binder: LPTTMNYPI [MAGE3.71.I9 LPTTMNYPI]

IC50 [16]: 114 nM
Binder: NQIMPKAGLLIIVLA [MAGE3.193]

IC50 [9]: 32 nM
IC50 [14]: 266 nM
Binder: FPKTGLLII [MAGE2.196.F1 FPKTGLLII]

IC50 [1]: 14.6 nM
Binder: IYSKASEYF [MAGE2.150.Y2F9 IYSKASEYF]

IC50 [12]: 77 nM
Binder: FPIGHLYII [MAGE3.170.F1I9 FPIGHLYII]

IC50 [16]: 2630 nM
Binder: NQVMPKTGLLIIVLA [MAGE2.193]

IC50 [13]: 286 nM
IC50 [1]: 286 nM
Binder: SYPPLHEW [MAGE3.300 SYPPLHEW]

IC50 [1]: 1.2 nM
Binder: IYPKAGLLIF [MAGE3.195.Y2F10 IYPKAGLLIF]

IC50 [1]: 9.2 nM
Binder: IYPKAGLLF [MAGE3.195.Y2F9 IYPKAGLLF]

IC50 [11]: 86 nM
IC50 [9]: 367 nM
Binder: FPRKLLMQDLI [MAGE2.241.F1 FPRKLLMQDLI]
